Consider 1 compound from patent US20190055279A1, “NOVEL POLYPEPTIDES WITH IMPROVED PROTEOLYTIC STABILITY, AND METHODS OF PREPARING AND USING SAME” (TUFTS UNIVERSITY, priority 2015, published 2019).

The chains behind the UniProt entries cited, without tags or fusion partners.
UniProt P27487, whole entry, species assumed: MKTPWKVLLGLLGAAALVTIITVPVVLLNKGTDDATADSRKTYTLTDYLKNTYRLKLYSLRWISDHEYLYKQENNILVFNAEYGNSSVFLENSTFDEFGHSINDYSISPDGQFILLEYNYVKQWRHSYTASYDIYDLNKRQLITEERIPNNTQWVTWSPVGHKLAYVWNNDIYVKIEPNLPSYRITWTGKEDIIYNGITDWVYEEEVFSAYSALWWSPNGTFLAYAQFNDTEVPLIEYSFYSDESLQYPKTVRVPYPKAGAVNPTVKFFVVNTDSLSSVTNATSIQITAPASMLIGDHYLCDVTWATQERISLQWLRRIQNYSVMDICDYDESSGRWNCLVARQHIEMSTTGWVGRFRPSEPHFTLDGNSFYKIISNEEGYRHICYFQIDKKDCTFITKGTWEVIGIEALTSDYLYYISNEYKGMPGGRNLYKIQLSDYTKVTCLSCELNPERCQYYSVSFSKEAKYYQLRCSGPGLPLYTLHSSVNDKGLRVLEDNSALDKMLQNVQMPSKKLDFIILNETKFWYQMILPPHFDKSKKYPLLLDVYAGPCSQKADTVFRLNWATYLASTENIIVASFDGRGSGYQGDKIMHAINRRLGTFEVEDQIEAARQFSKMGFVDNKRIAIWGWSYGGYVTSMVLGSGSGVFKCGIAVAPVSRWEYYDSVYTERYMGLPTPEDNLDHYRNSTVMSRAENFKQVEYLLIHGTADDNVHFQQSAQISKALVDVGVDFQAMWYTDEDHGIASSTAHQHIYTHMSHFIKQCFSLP

One series addresses DPP4 (Homo sapiens, UniProt P27487). Kind of series: Sensitivity to DPP4: overnight incubation with recombinant DPP4 or vehicle, then receptor agonist bioassay. Conditions: overnight incubation with or without DPP4, readout at cognate receptor. The method, then:
Plotting concentration versus the luciferase activity yielded quantitative parameters for combined binding (potency) and signaling (efficacy) in a single step. […] DPP4 treated peptides: 10 μl of 0.26 mM peptide were incubated with 2 μL DPP4 in buffer ±DMSO for 18 hrs. Control peptides: 10 μl of 0.26 mM peptide was added to buffer ±DMSO. The final DMSO concentration was the same for all peptides and all peptides were diluted to 0.26 mM concentrations for the DPP4 assay.
Compounds are incubated overnight at 37° C. in the presence of recombinant DPP4 or vehicle (TRIS buffer). The samples are then assessed in GLP-1R agonist assays.
Compounds were incubated overnight at 37° C. in the presence of recombinant DPP4 or vehicle (TRIS buffer, pH 8.0). The samples were then assessed in GLP1R agonist assays as described elsewhere herein.

Series [1] is described as follows: Plasma drug activity after bolus injection via central catheter in rats, bioassay of receptor agonism. It counts as in vivo. Conditions: compared with liraglutide. From the text: Rats received a bolus injection of either drug via central catheter, followed by serial blood draws after indicated intervals and measurement of plasma drug activity by bioassay of receptor agonism. Potency of each peptide immediately following injection was defined as 100%.

For the compound `CCCCCCCCCCCCCCCC(=O)N[C@@H](CCC(=O)NCCCC[C@H](NC(=O)[C@H](C)NC(=O)[C@H](C)NC(=O)[C@H](CCC(N)=O)NC(=O)CNC(=O)[C@H](CCC(=O)O)NC(=O)[C@H](CC(C)C)NC(=O)[C@H](Cc1ccc(O)cc1)NC(=O)[C@H](CO)NC(=O)[C@H](CO)NC(=O)[C@@H](NC(=O)[C@H](CC(=O)O)NC(=O)[C@H](CO)NC(=O)[C@@H](NC(=O)[C@H](Cc1ccccc1)NC(=O)[C@@H](NC(=O)CNC(=O)[C@H](CCC(=O)O)NC(=O)[C@H](C)NC(=O)[C@H](Cc1c[nH]cn1)NCC(F)(F)F)[C@@H](C)O)[C@@H](C)O)C(C)C)C(=O)N[C@@H](CCC(=O)O)C(=O)N[C@@H](Cc1ccccc1)C(=O)N[C@H](C(=O)N[C@@H](C)C(=O)N[C@@H](Cc1c[nH]c2ccccc12)C(=O)N[C@@H](CC(C)C)C(=O)N[C@H](C(=O)N[C@@H](CCCNC(=N)N)C(=O)NCC(=O)N[C@@H](CCCNC(=N)N)C(=O)NCC(=O)O)C(C)C)[C@@H](C)CC)C(=O)O` [Lira-4], on DPP4, the “DPP4 degradation / resistance (in words)” value is listed as “remained intact”. Moreover, in series [1], the “plasma survival (time-dependent decrease of plasma drug activity)” value is recorded as “extended”.
